Reference: ChEMBL document CHEMBL2010713, “Structure-activity relationship of a new series of reversible dual monoacylglycerol lipase/fatty acid amide hydrolase inhibitors” (J Med Chem, 2012)

Target: Monoglyceride lipase (Rattus norvegicus) (UniProt Q8R431)
Assay: Inhibition of rat brain membrane MAGL assessed as [3H]-2-oleoylglycerol hydrolysis after 10 mins by liquid scintillation spectroscopy

CCCCC/C=C\C/C=C\C/C=C\C/C=C\CCCC(=O)OCC1CO1 (stereo unspecified)
IC50: 4.5 µM
